Measurements published in patent publication US8426453B2 (Astellas Pharma Inc., priority 2006, dated 2013).

Chains of the proteins cited; added tags and fusions are not shown.
UniProt P80457, whole entry: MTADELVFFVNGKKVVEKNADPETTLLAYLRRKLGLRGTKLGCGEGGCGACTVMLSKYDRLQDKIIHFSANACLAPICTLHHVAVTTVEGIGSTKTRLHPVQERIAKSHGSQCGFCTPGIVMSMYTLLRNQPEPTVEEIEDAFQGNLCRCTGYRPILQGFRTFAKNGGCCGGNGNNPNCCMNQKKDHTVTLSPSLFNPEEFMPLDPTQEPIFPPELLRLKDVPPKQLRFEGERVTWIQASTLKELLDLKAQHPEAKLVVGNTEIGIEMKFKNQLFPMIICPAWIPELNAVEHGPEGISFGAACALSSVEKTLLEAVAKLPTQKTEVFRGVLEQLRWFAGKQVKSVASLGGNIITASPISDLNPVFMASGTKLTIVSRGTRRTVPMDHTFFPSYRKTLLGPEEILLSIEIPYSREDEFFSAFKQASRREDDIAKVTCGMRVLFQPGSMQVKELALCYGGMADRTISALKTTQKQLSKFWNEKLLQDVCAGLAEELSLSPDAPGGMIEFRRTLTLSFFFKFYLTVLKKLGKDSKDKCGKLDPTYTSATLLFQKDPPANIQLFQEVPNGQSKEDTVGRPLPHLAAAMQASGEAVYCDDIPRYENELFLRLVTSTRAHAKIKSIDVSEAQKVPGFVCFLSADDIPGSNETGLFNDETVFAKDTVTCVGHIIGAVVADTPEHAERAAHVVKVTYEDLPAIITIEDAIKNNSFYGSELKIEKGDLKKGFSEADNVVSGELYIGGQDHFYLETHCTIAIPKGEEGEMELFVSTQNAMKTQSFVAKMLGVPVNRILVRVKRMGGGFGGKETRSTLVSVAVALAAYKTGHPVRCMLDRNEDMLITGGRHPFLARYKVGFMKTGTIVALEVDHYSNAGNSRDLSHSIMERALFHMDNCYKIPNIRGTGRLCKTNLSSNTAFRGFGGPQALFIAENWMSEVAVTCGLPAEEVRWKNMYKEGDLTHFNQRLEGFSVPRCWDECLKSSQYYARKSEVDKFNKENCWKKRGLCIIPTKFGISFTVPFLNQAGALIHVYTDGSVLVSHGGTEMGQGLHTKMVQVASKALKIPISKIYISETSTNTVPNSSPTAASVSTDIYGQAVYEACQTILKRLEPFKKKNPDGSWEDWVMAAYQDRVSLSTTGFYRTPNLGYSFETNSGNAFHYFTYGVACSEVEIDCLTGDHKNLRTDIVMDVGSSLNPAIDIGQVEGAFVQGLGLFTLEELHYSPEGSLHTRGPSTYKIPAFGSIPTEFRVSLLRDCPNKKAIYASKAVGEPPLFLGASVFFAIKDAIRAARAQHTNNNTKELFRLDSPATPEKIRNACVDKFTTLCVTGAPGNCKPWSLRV

Molecular target: xanthine oxidase (derived from butter milk, by Sigma) (Bos taurus, UniProt P80457)
Assay: Xanthine oxidase inhibiting activity (pterin fluorescence assay)
Conditions: read-out: IC50 (xanthine oxidase inhibiting activity); xanthine oxidase 0.03 units/ml, pterin 5 μM, room temperature

**Q.** For `CC(C)(C)c1ccc(-c2ccc(-c3ccc(C(=O)O)s3)cc2C#N)cc1`, which IC50 is on record?
**A.** Its IC50 is 0.5 nM.
